These are literature values, as cited in PMC3776131 (Bioorganic & medicinal chemistry letters, 2013).

Chains of the proteins cited; added tags and fusions are not shown. Lines headed by an entry give the natural chain unless they say otherwise; changes in a name come on top.
UniProt P41144: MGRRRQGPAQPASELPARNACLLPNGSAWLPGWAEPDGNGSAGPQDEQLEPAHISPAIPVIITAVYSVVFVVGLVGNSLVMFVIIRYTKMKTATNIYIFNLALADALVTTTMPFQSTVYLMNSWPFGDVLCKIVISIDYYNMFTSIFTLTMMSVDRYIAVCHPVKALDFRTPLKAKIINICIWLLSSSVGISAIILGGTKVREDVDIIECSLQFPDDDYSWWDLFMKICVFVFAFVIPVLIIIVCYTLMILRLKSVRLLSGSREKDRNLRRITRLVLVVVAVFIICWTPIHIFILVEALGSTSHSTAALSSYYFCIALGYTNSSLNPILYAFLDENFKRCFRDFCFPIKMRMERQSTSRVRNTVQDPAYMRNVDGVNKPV
UniProt P33533, whole entry: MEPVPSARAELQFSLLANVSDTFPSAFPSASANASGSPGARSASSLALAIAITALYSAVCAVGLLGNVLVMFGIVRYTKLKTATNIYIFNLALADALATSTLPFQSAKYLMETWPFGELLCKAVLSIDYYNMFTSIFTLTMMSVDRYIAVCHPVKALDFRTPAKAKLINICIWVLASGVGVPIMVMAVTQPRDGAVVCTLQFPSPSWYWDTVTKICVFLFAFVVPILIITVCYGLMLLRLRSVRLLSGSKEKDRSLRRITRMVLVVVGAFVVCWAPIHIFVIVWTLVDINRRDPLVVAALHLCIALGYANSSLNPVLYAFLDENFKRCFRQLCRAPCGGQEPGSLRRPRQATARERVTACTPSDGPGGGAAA
UniProt P33535, whole entry: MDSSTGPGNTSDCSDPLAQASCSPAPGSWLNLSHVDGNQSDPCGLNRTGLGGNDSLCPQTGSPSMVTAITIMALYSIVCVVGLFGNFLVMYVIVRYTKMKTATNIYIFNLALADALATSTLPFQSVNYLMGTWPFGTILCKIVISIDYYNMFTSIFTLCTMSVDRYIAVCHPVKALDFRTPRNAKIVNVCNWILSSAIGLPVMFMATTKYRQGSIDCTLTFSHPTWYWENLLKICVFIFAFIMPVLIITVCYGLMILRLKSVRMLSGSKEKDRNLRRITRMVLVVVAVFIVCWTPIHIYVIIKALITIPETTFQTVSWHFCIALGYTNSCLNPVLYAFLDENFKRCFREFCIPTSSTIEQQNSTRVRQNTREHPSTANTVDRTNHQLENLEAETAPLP

One data set addresses κ opioid receptor (Cavia porcellus, UniProt P41144). To be noted: read-out: Ki^κ; [3H]U69,593, guinea pig brain membranes; cited from earlier work.
A further data set addresses δ opioid receptors (Rattus norvegicus, UniProt P33533). To be noted: read-out: Ki^δ; [3H]DSLET, rat brain membranes; cited from earlier work.
The target in another data set is μ opioid receptors (Rattus norvegicus, UniProt P33535). To be noted: read-out: Ki^μ; [3H]DAMGO, rat brain membranes; cited from earlier work.

The Ki is the equilibrium dissociation constant of an inhibitor or competing ligand from its target. On to H-Dmt-Tic-Phe-Phe-NH2 [Compound 4a], for which the Ki at κ opioid receptor is > 1 µM.
H-Dmt-Tic-Phe-Phe-OH [Compound 2a]: the Ki on κ opioid receptor was > 1 µM; on δ opioid receptors, 0.000248 ± 2.5e-05 µM.
For “H-Dmt-Ticψ[CH2NH]Phe-Phe-NH2 [Compound 5a]”, the inhibition constant Ki at κ opioid receptor is > 1 µM.
On to H-Tyr-Tic-Phe-Phe-OH [Compound 1a], for which the figures for the Ki at μ opioid receptors and at κ opioid receptor were 1.72 ± 0.05 µM and > 1 µM, respectively.
For the substance “H-Tyr-Ticψ[CH2NH]Phe-Phe-OH [Compound 3a]”, the Ki at κ opioid receptor is > 1 µM.
